From ChEMBL document CHEMBL5032521, “Design, synthesis and anti-tumor evaluation of 1,2,4-triazol-3-one derivatives and pyridazinone derivatives as novel CXCR2 antagonists” (Eur J Med Chem, 2021)

Chains of the proteins cited; added tags and fusions are not shown.
UniProt P25025, whole entry: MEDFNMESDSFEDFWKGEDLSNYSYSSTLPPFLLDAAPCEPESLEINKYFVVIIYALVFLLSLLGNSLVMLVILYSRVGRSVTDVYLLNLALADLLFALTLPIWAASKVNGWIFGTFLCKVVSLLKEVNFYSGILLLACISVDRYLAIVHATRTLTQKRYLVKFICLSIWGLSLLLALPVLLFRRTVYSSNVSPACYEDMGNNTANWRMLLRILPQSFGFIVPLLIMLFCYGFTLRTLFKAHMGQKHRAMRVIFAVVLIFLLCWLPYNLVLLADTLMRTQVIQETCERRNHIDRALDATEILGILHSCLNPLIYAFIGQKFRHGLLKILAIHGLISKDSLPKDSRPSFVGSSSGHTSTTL

Biological target: C-X-C chemokine receptor type 2 (Homo sapiens, UniProt P25025)
Experiment: Antagonist activity against CXCR2 (unknown origin) by calcium flux assay
Type: functional

In the case of O=C(Nc1ccc([N+](=O)[O-])cc1O)Nc1ccccc1Br, the IC50 is reported as 197 nM.
